# According to PubChem BioAssay AID540308 (The Scripps Research Institute Molecular Screening Center, 2011):
# Sequences of proteins named here, by UniProt entry; tags and fusion partners are left off.
# UniProt P32245, whole entry, looked up: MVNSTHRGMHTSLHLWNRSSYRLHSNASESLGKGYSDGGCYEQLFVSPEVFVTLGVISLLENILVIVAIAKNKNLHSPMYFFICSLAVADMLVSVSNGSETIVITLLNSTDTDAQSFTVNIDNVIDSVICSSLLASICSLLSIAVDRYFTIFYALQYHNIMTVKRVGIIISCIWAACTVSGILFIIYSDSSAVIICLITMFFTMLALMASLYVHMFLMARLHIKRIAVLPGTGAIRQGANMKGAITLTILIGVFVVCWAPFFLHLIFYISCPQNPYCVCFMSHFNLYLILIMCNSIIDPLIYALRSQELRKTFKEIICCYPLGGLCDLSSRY
# The list shows a part of the results, in another mix than the full data. The source made the active and inactive calls.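 The calls were made as follows: active = activation above a per-plate cutoff, the mean activation of sample wells on that plate plus 3 SD (cut at about 8% in these data); inactive = the rest.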
# Target: Melanocortin receptor 4 (Homo sapiens) (UniProt P32245)
# Assay: MC4R agonists recruiting beta-arrestin, primary screen, cell-based, luminescence, agonist arm of biased-ligand search (AID 540308)
# Details: U2OS MC4R beta-arrestin complementation, at 8.9 µM, stronger effect = higher value, percent of melanotan II response, DMSO zero
row,Structure (SMILES),activation
1,O=C(OC1CN2CCC1CC2)C12CC3CC(CC(C3)C1)C2 (configuration not stated),inactive: 2.67%
2,O=P1(N(CCCl)CCCl)OCCCN1CCCl (configuration not stated),inactive: 0.04%
3,O=P1(N(CCCl)CCCl)Nc2ccccc2N1,inactive: -0.12%
4,COc1cc(I)ccc1[As](=O)(O)O,inactive: 0.62%
5,COc1ccc2nc(NP(=O)(c3ccccc3)c3ccccc3)sc2c1,inactive: -2.15%
6,O=[N+]([O-])c1cc(Oc2ccc([N+](=O)[O-])cc2C(F)(F)F)cc([N+](=O)[O-])c1,inactive: 1.73%
7,COc1ccc(N/C(=N/P(=O)(N2CCOCC2)N2CCOCC2)N2CCOCC2)cc1,inactive: -3.43%
8,COP1(=S)c2c(C)nn(CCC#N)c2N=C(c2ccc(F)cc2)N1C (configuration not stated),inactive: -2.11%
9,O=C(O)C(=O)c1ccc(N(CCCl)CCCl)cc1,inactive: -1.27%
10,O=C(Nc1ccncc1[N+](=O)[O-])c1ccc([N+](=O)[O-])cc1[N+](=O)[O-],inactive: -0.15%
11,O=C(COc1ccccc1)OC1CN2CCC1CC2 (configuration not stated),inactive: 0.87%
12,CSc1ccc(Nc2c([N+](=O)[O-])cc([N+](=O)[O-])cc2[N+](=O)[O-])cc1,inactive: -4.45%
13,O=C(OC1CN2CCC1CC2)c1cccc([N+](=O)[O-])c1 (configuration not stated),inactive: 0.05%
14,CCOC(=O)c1ccc(NC(=O)C(C)(CCl)SC)cc1 (configuration not stated),inactive: -1.04%
15,CCC(C)N(CC(C)C)C(=S)SC(NC(C)=O)C(Cl)(Cl)Cl (configuration not stated),inactive: 0.18%
16,CCOC(=O)Nc1ccc([As](=O)(O)O)c(O)c1,inactive: -1.06%
17,O=C(O)C(O)c1ccc(N(CCCl)CCCl)cc1 (configuration not stated),inactive: -0.16%
18,CC1CCNP(=O)(N(CCCl)CCCl)O1 (configuration not stated),inactive: -1.55%
19,COP(=O)(OC)N1CC1c1ccccc1 (configuration not stated),inactive: -0.35%
20,Cc1cc(SC(NC(=O)c2ccccc2)C(Cl)(Cl)Cl)nc(C(C)C)n1 (configuration not stated),inactive: 0.56%
21,CCCCOc1ccc(C(=O)NCC2(N3CCCCC3)CCCCC2)cc1OC,inactive: -1.53%
22,CCOC(=O)Nc1cccc([As](=O)(O)O)c1,inactive: -1.9%
23,O=P(Nc1ccccn1)(c1cccc2ccccc12)c1cccc2ccccc12,inactive: -2.59%
24,Cc1cc(SC(NC=O)C(Cl)(Cl)Cl)ncn1 (configuration not stated),inactive: 0.87%
25,O=[N+]([O-])c1ccc(Nc2ccc(Oc3ccc([N+](=O)[O-])cc3[N+](=O)[O-])cc2)c([N+](=O)[O-])c1,inactive: -1.21%
26,CC1CCC(C(C)C)C(OP(=O)(Nc2ccccn2)c2ccccc2)C1 (configuration not stated),inactive: 0.36%
27,Cc1ccc(C(=O)OC2CN3CCC2CC3)cc1 (configuration not stated),inactive: 1.17%
